# According to PubChem BioAssay AID463075 (University of Pittsburgh Molecular Library Screening Center, 2010):
# Values joined by “and” are separate entries in the source; they are usually repeats but may differ in a detail not shown here. Equal entries are not always repeated. This is a selection; strong and weak results do not stand in their true shares. Active and inactive are the calls of the source.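 The calls were made as follows: active = activation, meaning protection from cell death, of at least 50% relative to plate controls; inactive = activation below 50%.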
# Assay: inhibitors of TNF-alpha triggered necroptosis, primary screen, cell-based, Jurkat FADD-/-, single concentration (AID 463075);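 also: necroptosis triggered by 40 ng/mL TNF-alpha added together with compound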
# Details: Jurkat FADD-/- TNF necroptosis rescue, ATP luminescence, 24 h; at 10 µM; active compounds read high; 0 = TNF only, 100 = no-TNF cells
row,Structure (SMILES),activation (protection from cell death)
1,CCOP(=O)(Nc1ccccc1)OCC,inactive: 0.284% and inactive: -0.215%
2,CC(=O)Nc1ccc([As](=O)(O)O)cc1,inactive: 0.454%
3,O=P(Nc1nc2ccc(Cl)cc2s1)(c1ccccc1)c1ccccc1,inactive: 5.89%
4,CCN(N=Nc1nonc1N)c1nonc1N,inactive: 1.8%
5,Nc1cccc2ccc([As](=O)(O)O)cc12,inactive: 3.29%
6,O=C(Nc1cc([As](=O)(O)O)ccc1O)c1ccccc1,inactive: 0.996%
7,O=[N+]([O-])c1cccc(NC2=NCC(CBr)S2)c1 (stereo unspecified),inactive: -1.13%
8,O=C(O)CNc1ccc([As](=O)(O)O)cc1,inactive: 1.09%
9,CC(C)(C)C(=O)NC(Sc1ccncn1)C(Cl)(Cl)Cl (stereo unspecified),inactive: 1.84%
10,O=[N+]([O-])c1ncn(CCn2ncnc2[N+](=O)[O-])n1,inactive: 0.788%
11,CC(=O)N1C2C3N(C(C)=O)C1C1N(C(C)=O)C(C(N1C(C)=O)N3C(C)=O)N2C(C)=O,inactive: -1.16%
12,O=[N+]([O-])c1cccc2n[nH]nc12,inactive: -0.648%
13,O=[N+]([O-])c1cc([N+](=O)[O-])c(CCNc2ccccc2)c([N+](=O)[O-])c1,inactive: -4.78%
14,Cc1ccc(NP(=O)(Oc2ccccc2)Oc2ccccc2)nc1,inactive: 1.11%
15,COc1ccc(C2=NCC(CBr)S2)cc1 (stereo unspecified),inactive: -0.701%
16,CN(C)C(=O)OCCc1n(C)cc[n+]1C,inactive: 1.44%
17,CC(C)=N/N=C(\N)N[N+](=O)[O-],inactive: 0.432%
18,CC1CCN(C(=O)Oc2c(Cl)cc(Cl)c3cccnc23)CC1,inactive: -1.99%
19,C[N+]1=C2C=CC=CC=C2SC12C([N+](=O)[O-])=CC([N+](=O)[O-])=C[C-]2[N+](=O)[O-] (stereo unspecified),inactive: -23.4%
20,Nc1ccc([As](=O)(O)c2ccc(N)cc2)cc1,inactive: 1.86%
21,CCN(/C(=N/P(=O)(N1CCOCC1)N1CCOCC1)N1CCOCC1)c1ccc(OC)cc1,inactive: 0.226%
